Reference: paper PMC3770802 (Cytokine, 2013)

Biological target: T1, IFN-αR1/StFP (human, UniProt P17181 28-557)
T1 sequence (looked up): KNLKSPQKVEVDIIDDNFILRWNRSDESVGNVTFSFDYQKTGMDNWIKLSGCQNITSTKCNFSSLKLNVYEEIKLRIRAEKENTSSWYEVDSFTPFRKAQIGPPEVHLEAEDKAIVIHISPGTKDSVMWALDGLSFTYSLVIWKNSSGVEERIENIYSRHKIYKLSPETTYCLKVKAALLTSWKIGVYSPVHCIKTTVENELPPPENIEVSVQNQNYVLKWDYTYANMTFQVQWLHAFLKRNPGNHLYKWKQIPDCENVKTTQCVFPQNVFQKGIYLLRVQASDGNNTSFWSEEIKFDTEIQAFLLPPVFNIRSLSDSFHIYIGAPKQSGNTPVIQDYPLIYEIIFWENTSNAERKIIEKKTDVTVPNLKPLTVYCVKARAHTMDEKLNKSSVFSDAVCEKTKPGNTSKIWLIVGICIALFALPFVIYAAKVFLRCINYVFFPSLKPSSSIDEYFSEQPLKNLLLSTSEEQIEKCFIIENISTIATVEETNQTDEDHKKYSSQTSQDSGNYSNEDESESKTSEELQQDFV
Assay: FRET or BRET

EC50* (relative): 300 pairs/cell | EC50* (relative), rarely seen: 30 pairs/cell
B1: Jak1/CiFP (enzyme, UniProt P23458 1-1154, looked up)
chain: MQYLNIKEDCNAMAFCAKMRSSKKTEVNLEAPEPGVEVIFYLSDREPLRLGSGEYTAEELCIRAAQACRISPLCHNLFALYDENTKLWYAPNRTITVDDKMSLRLHYRMRFYFTNWHGTNDNEQSVWRHSPKKQKNGYEKKKIPDATPLLDASSLEYLFAQGQYDLVKCLAPIRDPKTEQDGHDIENECLGMAVLAISHYAMMKKMQLPELPKDISYKRYIPETLNKSIRQRNLLTRMRINNVFKDFLKEFNNKTICDSSVSTHDLKVKYLATLETLTKHYGAEIFETSMLLISSENEMNWFHSNDGGNVLYYEVMVTGNLGIQWRHKPNVVSVEKEKNKLKRKKLENKHKKDEEKNKIREEWNNFSYFPEITHIVIKESVVSINKQDNKKMELKLSSHEEALSFVSLVDGYFRLTADAHHYLCTDVAPPLIVHNIQNGCHGPICTEYAINKLRQEGSEEGMYVLRWSCTDFDNILMTVTCFEKSEQVQGAQKQFKNFQIEVQKGRYSLHGSDRSFPSLGDLMSHLKKQILRTDNISFMLKRCCQPKPREISNLLVATKKAQEWQPVYPMSQLSFDRILKKDLVQGEHLGRGTRTHIYSGTLMDYKDDEGTSEEKKIKVILKVLDPSHRDISLAFFEAASMMRQVSHKHIVYLYGVCVRDVENIMVEEFVEGGPLDLFMHRKSDVLTTPWKFKVAKQLASALSYLEDKDLVHGNVCTKNLLLAREGIDSECGPFIKLSDPGIPITVLSRQECIERIPWIAPECVEDSKNLSVAADKWSFGTTLWEICYNGEIPLKDKTLIEKERFYESRCRPVTPSCKELADLMTRCMNYDPNQRPFFRAIMRDINKLEEQNPDIVSEKKPATEVDPTHFEKRFLKRIRDLGEGHFGKVELCRYDPEGDNTGEQVAVKSLKPESGGNHIADLKKEIEILRNLYHENIVKYKGICTEDGGNGIKLIMEFLPSGSLKEYLPKNKNKINLKQQLKYAVQICKGMDYLGSRQYVHRDLAARNVLVESEHQVKIGDFGLTKAIETDKEYYTVKDDRDSPVFWYAPECLMQSKFYIASDVWSFGVTLHELLTYCDSDSSPMALFLKMIGPTHGQMTVTRLVNTLKEGKRLPCPPNCPDEVYQLMRKCWEFQPSNRTSFQNLIEGFEALLK
